Here are results for one substance from patent US4125375A, “Separation of solid and liquid components of mixtures” (National Research Development Corporation, priority 1975, dated 1978).

The subject of the test is guinea pig anti-hFSH. Put plainly: Radioimmunoassay for human follicle stimulating hormone (hFSH), solid phase second antibody separation. In kind it is binding. Here is the method: A comparison of the separation of "bound" from "free" ^125 I-FSH by conventional centrifuge techniques and by the technique of the present invention is carried out as follows. After incubation of aliquots of the tracer (^125 I-FSH) and primary antibody (guinea pig anti-hFSH) a solid phase second antibody (rabbit anti-guinea pig γ globulin serum coupled to Sepharose 4B) is added to each incubate giving a total volume of 0.5 ml in each tube, and the tubes are agitated for 30 minutes. Control tubes containing tracer and solid phase second antibody but no primary antibody are also prepared for the purposes of comparison. The tubes are then divided into three groups (A, B and C) and further treated as follows. (A) 6 ml of diluent is added to each tube in this group and the diluent is thoroughly mixed with the incubate. The tubes are then centrifuged at 2000 g for 5 minutes and the supernatant liquid discarded. A further 6 ml of diluent is added to each tube, the diluent mixed with the deposit, centrifugation repeated, the supernatant again discarded, and the tubes are then counted using the Wallac auto-γ counter as in Example 1 though without the modifications as in FIG. 1. (B) 0.5 ml of diluent is added to each tube in this group and the diluent thoroughly mixed with the incubate. 1.2 ml of a 10% w/v aqueous solution of sucrose is then immediately added to each tube using a stainless steel probe and peristaltic pump as described in Example 1. The tubes are left to stand for 10 minutes during which time the solid bound Sepharose phase settles under the action of gravity into the sucrose layer. 1.2 ml of liquid (i.e. 1 ml of upper aqueous layer and the interface and about 0.2 ml of the sucrose) is then removed from the top of each tube by means of a glass tube connected to a water pump. The contents of each tube are then counted by placing them in an unmodified counter as in A above. (C) The tubes in this group are initially treated as are the tubes in Group B. Prior to counting however, 1.2 ml of 20% w/v aqueous sucrose solution is layered beneath the suspension of Sepharose in 10% sucrose. The tubes are then left to stand for a further 10 minutes, the Sepharose settling under the action of gravity into the layer of 20% sucrose, and 1.2 ml of liquid is removed from the top of each tube. The delivery and removal of liquids is carried out in the same way as in Group B. The tubes are then counted using an unmodified counter as above, the results obtained being given in Table 2 below.

As for “^125 I-FSH: tracer (^125 I-FSH) of the radioimmunoassay for human follicle stimulating hormone (hFSH)”, the “% Bound” value is, setting by setting: ("O" standards, Group A (centrifuged controls)) 36.9%; ("O" standards, Group B in situ system 1 wash (10% sucrose)) 36.9%; ("O" standards, Group C in situ system 2 washes (10% and 20% sucrose)) 34.3%; (Controls (no primary antibody), Group A (centrifuged controls)) 2.9%; (Controls (no primary antibody), Group B in situ system 1 wash (10% sucrose)) 1.8%; (Controls (no primary antibody), Group C in situ system 2 washes (10% and 20% sucrose)) 0.8%.
